Test results as given in patent US20150202287A1, “COMBINATION THERAPIES COMPRISING ANTI-ERBB3 AGENTS” (Merrimack Pharmaceuticals, Inc., priority 2012, published 2015).

System: NCI-N87 cells
Assay: T-DM1 and heregulin dose matrix cell viability, NCI-N87
Method: Cells were allowed to adhere 16-20 hours at +37° C., 5% CO2. Cells were stimulated for 4 hours by adding 5 μl of culture media containing recombinant human NRG-1-β1 EGF domain (HRG1) bringing the final HRG1 stimulation concentration to 0, 0.313, 0.625, 1.25, 2.5, 5 or 10 nM. […] All conditions were assayed in biological quadruplicates. Cells were incubated for 72 h at +37° C., 5% CO2. Cell viability was determined by CellTiter-Glo® Luminescent Cell Viability Assay by adding 20 μl of reconstituted CellTiter-Glo reagent per well, incubating plated for 10 minutes at RT in an orbital shaker and reading the luminescence signal using Biotek™ Synergy H1 Hybrid Reader.

## ado-trastuzumab emtansine [T-DM1]
HRG 1.25 nM, T-DM1 0.123457 μg/ml, with MM-111 1 μM, 72 h
  cell viability: 43.11 % of control
HRG 1.25 nM, T-DM1 0.123457 μg/ml, without MM-111, 72 h
  cell viability: 66.02 % of control
HRG 1.25 nM, T-DM1 0.37037 μg/ml, with MM-111 1 μM, 72 h
  cell viability: 43.031 % of control
HRG 1.25 nM, T-DM1 0.37037 μg/ml, without MM-111, 72 h
  cell viability: 69.3 % of control
HRG 1.25 nM, T-DM1 1.111111 μg/ml, with MM-111 1 μM, 72 h
  cell viability: 40.2014 % of control
HRG 1.25 nM, T-DM1 1.111111 μg/ml, without MM-111, 72 h
  cell viability: 69.4 % of control
HRG 1.25 nM, T-DM1 3.333333 μg/ml, with MM-111 1 μM, 72 h
  cell viability: 37.53 % of control
HRG 1.25 nM, T-DM1 3.333333 μg/ml, without MM-111, 72 h
  cell viability: 58.9 % of control
HRG 1.25 nM, T-DM1 10 μg/ml, with MM-111 1 μM, 72 h
  cell viability: 35.5527 % of control
HRG 1.25 nM, T-DM1 10 μg/ml, without MM-111, 72 h
  cell viability: 68.77 % of control
HRG 2.5 nM, T-DM1 0.001524 μg/ml, with MM-111 1 μM, 72 h
  cell viability: 117.2117 % of control
HRG 2.5 nM, T-DM1 0.001524 μg/ml, without MM-111, 72 h
  cell viability: 90.8 % of control
HRG 2.5 nM, T-DM1 0.004572 μg/ml, with MM-111 1 μM, 72 h
  cell viability: 99.28 % of control
HRG 2.5 nM, T-DM1 0.004572 μg/ml, without MM-111, 72 h
  cell viability: 84.1 % of control
HRG 2.5 nM, T-DM1 0.013717 μg/ml, with MM-111 1 μM, 72 h
  cell viability: 90.13 % of control
HRG 2.5 nM, T-DM1 0.013717 μg/ml, without MM-111, 72 h
  cell viability: 83.77 % of control
HRG 2.5 nM, T-DM1 0.041152 μg/ml, with MM-111 1 μM, 72 h
  cell viability: 63.71 % of control
HRG 2.5 nM, T-DM1 0.041152 μg/ml, without MM-111, 72 h
  cell viability: 69.34 % of control
HRG 2.5 nM, T-DM1 0.123457 μg/ml, with MM-111 1 μM, 72 h
  cell viability: 52.76 % of control
HRG 2.5 nM, T-DM1 0.123457 μg/ml, without MM-111, 72 h
  cell viability: 74.67 % of control
HRG 2.5 nM, T-DM1 0.37037 μg/ml, with MM-111 1 μM, 72 h
  cell viability: 43.73 % of control
HRG 2.5 nM, T-DM1 0.37037 μg/ml, without MM-111, 72 h
  cell viability: 67.24 % of control
HRG 2.5 nM, T-DM1 1.111111 μg/ml, with MM-111 1 μM, 72 h
  cell viability: 41.27 % of control
HRG 2.5 nM, T-DM1 1.111111 μg/ml, without MM-111, 72 h
  cell viability: 72.16 % of control
HRG 2.5 nM, T-DM1 3.333333 μg/ml, with MM-111 1 μM, 72 h
  cell viability: 36.42 % of control
HRG 2.5 nM, T-DM1 3.333333 μg/ml, without MM-111, 72 h
  cell viability: 66.06 % of control
HRG 2.5 nM, T-DM1 10 μg/ml, with MM-111 1 μM, 72 h
  cell viability: 38.53 % of control
HRG 2.5 nM, T-DM1 10 μg/ml, without MM-111, 72 h
  cell viability: 65.69 % of control
HRG 5 nM, T-DM1 0.001524 μg/ml, with MM-111 1 μM, 72 h
  cell viability: 128.6171 % of control
HRG 5 nM, T-DM1 0.001524 μg/ml, without MM-111, 72 h
  cell viability: 94.98 % of control
HRG 5 nM, T-DM1 0.004572 μg/ml, with MM-111 1 μM, 72 h
  cell viability: 118.6616 % of control
HRG 5 nM, T-DM1 0.004572 μg/ml, without MM-111, 72 h
  cell viability: 89.1 % of control
HRG 5 nM, T-DM1 0.013717 μg/ml, with MM-111 1 μM, 72 h
  cell viability: 95.05 % of control
HRG 5 nM, T-DM1 0.013717 μg/ml, without MM-111, 72 h
  cell viability: 80.42 % of control
HRG 5 nM, T-DM1 0.041152 μg/ml, with MM-111 1 μM, 72 h
  cell viability: 70.74 % of control
HRG 5 nM, T-DM1 0.041152 μg/ml, without MM-111, 72 h
  cell viability: 71.02 % of control
HRG 5 nM, T-DM1 0.123457 μg/ml, with MM-111 1 μM, 72 h
  cell viability: 51.52 % of control
HRG 5 nM, T-DM1 0.123457 μg/ml, without MM-111, 72 h
  cell viability: 73.54 % of control
HRG 5 nM, T-DM1 0.37037 μg/ml, with MM-111 1 μM, 72 h
  cell viability: 43.88 % of control
HRG 5 nM, T-DM1 0.37037 μg/ml, without MM-111, 72 h
  cell viability: 68.99 % of control
HRG 5 nM, T-DM1 1.111111 μg/ml, with MM-111 1 μM, 72 h
  cell viability: 43.0434 % of control
HRG 5 nM, T-DM1 1.111111 μg/ml, without MM-111, 72 h
  cell viability: 75.73 % of control
HRG 5 nM, T-DM1 3.333333 μg/ml, with MM-111 1 μM, 72 h
  cell viability: 42.54 % of control
HRG 5 nM, T-DM1 3.333333 μg/ml, without MM-111, 72 h
  cell viability: 64.95 % of control
HRG 5 nM, T-DM1 10 μg/ml, with MM-111 1 μM, 72 h
  cell viability: 40.95 % of control
HRG 5 nM, T-DM1 10 μg/ml, without MM-111, 72 h
  cell viability: 63.22 % of control
HRG 10 nM, T-DM1 0.001524 μg/ml, with MM-111 1 μM, 72 h
  cell viability: 140.3695 % of control
HRG 10 nM, T-DM1 0.001524 μg/ml, without MM-111, 72 h
  cell viability: 88.14 % of control
HRG 10 nM, T-DM1 0.004572 μg/ml, with MM-111 1 μM, 72 h
  cell viability: 122.2993 % of control
HRG 10 nM, T-DM1 0.004572 μg/ml, without MM-111, 72 h
  cell viability: 101.4929 % of control
HRG 10 nM, T-DM1 0.013717 μg/ml, with MM-111 1 μM, 72 h
  cell viability: 95.17 % of control
HRG 10 nM, T-DM1 0.013717 μg/ml, without MM-111, 72 h
  cell viability: 80.41 % of control
HRG 10 nM, T-DM1 0.041152 μg/ml, with MM-111 1 μM, 72 h
  cell viability: 70.82 % of control
HRG 10 nM, T-DM1 0.041152 μg/ml, without MM-111, 72 h
  cell viability: 69.82 % of control
HRG 10 nM, T-DM1 0.123457 μg/ml, with MM-111 1 μM, 72 h
  cell viability: 52.82 % of control
HRG 10 nM, T-DM1 0.123457 μg/ml, without MM-111, 72 h
  cell viability: 64.33 % of control
HRG 10 nM, T-DM1 0.37037 μg/ml, with MM-111 1 μM, 72 h
  cell viability: 47.2081 % of control
HRG 10 nM, T-DM1 0.37037 μg/ml, without MM-111, 72 h
  cell viability: 61.13 % of control
HRG 10 nM, T-DM1 1.111111 μg/ml, with MM-111 1 μM, 72 h
  cell viability: 43.46 % of control
HRG 10 nM, T-DM1 1.111111 μg/ml, without MM-111, 72 h
  cell viability: 62.15 % of control
HRG 10 nM, T-DM1 3.333333 μg/ml, with MM-111 1 μM, 72 h
  cell viability: 42.6 % of control
HRG 10 nM, T-DM1 3.333333 μg/ml, without MM-111, 72 h
  cell viability: 59.46 % of control
HRG 10 nM, T-DM1 10 μg/ml, with MM-111 1 μM, 72 h
  cell viability: 42.13 % of control
HRG 10 nM, T-DM1 10 μg/ml, without MM-111, 72 h
  cell viability: 68.79 % of control
